Measurements taken from US20100056458A1, “Peptides Inhibiting Angiotensin-Converting Enzyme” (CAMPINA NEDERLAND HOLDING B.V., priority 2005, published 2010).

System: angiotensin-converting enzyme (ACE)
Test: HPLC with mass spectrometry and on-line bioassay unit for assessing ACE-inhibiting activity
Assay type: biochemical
Excerpt: The identity and the activity of the peptides and their mixtures can be determined by known methods, e.g. as described by Van Elswijk et al. J Chromatography A, 1020 (2003) 45-58, involving liquid chromatography coupled to mass spectroscopy, and on-line bioassay. […] The IC50 can be determined in vitro as described by V. Vermeirsen, J. van Camp & J. Verstraete, “Optimisation and validation of an angiotensin-converting enzyme inhibition assay for the screening of bioactive peptides”. J. Biochem. Biophys. Methods 51, 75-87 (2002).
The peptides obtained according to example I, were analysed using HPLC as described by Van Elswijk et al. J Chromatography A 1020 (2003) 45-58. The HPLC eluate was divided over a mass spectrometry for determining the peptide structure and a bioassay unit for assessing the ACE-inhibiting activity. The following peptides were identified: AVP (SEQ ID No. 25), LV (SEQ ID No. 5) and IV (SEQ ID No. 1). Another batch of the same caseinate contained the peptides KIHP (SEQ ID No. 28), KK (SEQ ID No. 73), VPYPQR (SEQ ID No. 20), and KYKVPQ (SEQ ID No. 91). Starting with other casein sources the peptides VLGPV (SEQ ID No. 10), VLPVPQK (SEQ ID No. 75), VPYPQ (SEQ ID No. 21), KK (SEQ ID No. 73), VNELSK (SEQ ID No. 76), and FFVAPFPEVFG (SEQ ID No. 33) were found.
Similarly the product from example II was analysed and contained IAEKT (SEQ ID No. 57), LDIQK (SEQ ID No. 74) and LKALP (SEQ ID No. 64). Starting from other whey protein sources WPC 60 or whey protein isolate, VLGPV (SEQ ID No. 10), VLPVPQ (SEQ ID No. 18), MKGLDI (SEQ ID No. 41), LR (SEQ ID No. 44), MHIRLS (SEQ ID No. 48), IIA (SEQ ID No. 56) were identified.

[1] = hydrolysate of example I (calcium caseinate)

KK: β-casein-derived peptide
identified as ACE-inhibiting peptide (another batch of the same caseinate): contained | identified as ACE-inhibiting peptide (other casein sources): found

IV (listed as Bos taurus)
identified as ACE-inhibiting peptide [1]: identified

LR (listed as Bos taurus)
identified as ACE-inhibiting peptide (other whey protein sources WPC 60 or whey protein isolate): identified

LV (listed as Bos taurus)
identified as ACE-inhibiting peptide [1]: identified
